Results reported in ChEMBL document CHEMBL3407438, “Discovery of potent, orally bioavailable, small-molecule inhibitors of WNT signaling from a cell-based pathway screen” (J Med Chem, 2015).

Sequences of proteins named here, by UniProt entry; tags and fusion partners are left off.
UniProt P56704, whole entry: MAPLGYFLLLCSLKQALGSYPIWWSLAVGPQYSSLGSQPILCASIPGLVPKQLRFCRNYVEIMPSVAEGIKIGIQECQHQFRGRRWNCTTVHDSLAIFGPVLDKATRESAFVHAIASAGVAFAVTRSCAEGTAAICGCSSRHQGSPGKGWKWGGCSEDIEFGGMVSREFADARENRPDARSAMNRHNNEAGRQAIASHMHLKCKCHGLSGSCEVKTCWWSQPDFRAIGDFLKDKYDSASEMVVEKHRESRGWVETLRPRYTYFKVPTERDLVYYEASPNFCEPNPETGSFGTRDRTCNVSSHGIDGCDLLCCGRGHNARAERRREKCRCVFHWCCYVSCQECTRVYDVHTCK

Tests used:
Protein Wnt-3a = Protein Wnt-3a (Homo sapiens, UniProt P56704); assay: Inhibition of ligand-induced WNT3A signaling in human PA-1 cells harboring TCF preincubated for 6 hrs before ligand addition measured after 24 hrs by luciferase reporter assay; assay type: cell-based
[1] = Kinetic solubility of the compound in phosphate buffer at pH 7.4; assay type: physicochemical
Procedure, shortened: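 Kinetic and thermodynamic aqueous solubilities were measured in phosphate buffer at pH 7.4.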

SMILES: Cn1cc(-c2ccc(-c3cncc(Cl)c3N3CCC4(CCNC4=O)CC3)cc2)cn1
- IC50 (Protein Wnt-3a): 7 nM
- Kinetic_solubility [1]: 94 µM
